# Read-outs that look alike come from different tables or passages of the source.
# By UniProt entry, the sequences of proteins in these tests, tags left out.
# UniProt C5YGL7, entry or part of it: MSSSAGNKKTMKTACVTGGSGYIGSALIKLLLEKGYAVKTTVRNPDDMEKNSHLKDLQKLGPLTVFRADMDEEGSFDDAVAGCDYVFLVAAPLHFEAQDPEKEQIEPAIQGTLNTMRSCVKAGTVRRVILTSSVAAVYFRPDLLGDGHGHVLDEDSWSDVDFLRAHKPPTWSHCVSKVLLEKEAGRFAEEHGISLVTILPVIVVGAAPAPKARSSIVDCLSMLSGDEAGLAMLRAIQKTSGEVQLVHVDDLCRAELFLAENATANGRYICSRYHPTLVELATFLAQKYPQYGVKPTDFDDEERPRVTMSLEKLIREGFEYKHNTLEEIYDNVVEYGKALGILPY
# UniProt A0A8T0SQV2, entry or part of it: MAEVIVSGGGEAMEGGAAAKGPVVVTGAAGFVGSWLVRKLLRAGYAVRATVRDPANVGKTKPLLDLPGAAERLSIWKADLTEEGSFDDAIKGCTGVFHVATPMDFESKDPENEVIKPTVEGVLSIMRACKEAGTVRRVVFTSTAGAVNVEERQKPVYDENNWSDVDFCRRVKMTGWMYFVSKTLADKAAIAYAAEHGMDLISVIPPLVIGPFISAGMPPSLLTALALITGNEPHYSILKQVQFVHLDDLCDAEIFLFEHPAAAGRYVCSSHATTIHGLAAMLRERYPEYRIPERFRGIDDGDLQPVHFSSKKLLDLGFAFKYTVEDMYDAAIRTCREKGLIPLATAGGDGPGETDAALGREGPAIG
# What was measured:
# SbFNR1 = SbFNR1 (Sorghum bicolor, UniProt C5YGL7); assay: Isothermal titration calorimetry, SbFNR1; format: binding; conditions: ITC
# PvDFRa = PvDFRa (Panicum virgatum, UniProt A0A8T0SQV2); assay: Isothermal titration calorimetry, PvDFRa; format: binding; conditions: ITC
substance,measurement,setting,value
NADP^+,Kd,SbFNR1,13900 ± 2720 nM
same,Kd,"PvDFRa; 298 K, pH 6.5",180 ± 60 nM
same,Kd,PvDFRa; read-out: dissociation constant,185 nM

# From publication PMC10531346, “Structural Similarities and Overlapping Activities among Dihydroflavonol 4-Reductase, Flavanone 4-Reductase, and Anthocyanidin Reductase Offer Metabolic Flexibility in the Flavonoid Pathway” (International Journal of Molecular Sciences, 2023)
